## Antibody variant affinities, Ab-91 heavy chain, assay 2

Data: MIT Lincoln Laboratory AlphaSeq set, Engelhart et al. 2022, doi:10.1038/s41597-022-01779-4, as distributed in FLAb.

Target peptide (SARS-CoV-2 spike, HR2 region): PDVDLGDISGINAS

Parent: Ab-91, a human scFv built as VL, a 15-residue (Gly4Ser)3 linker, VH. Only the CDRs of the heavy chain vary.
VL: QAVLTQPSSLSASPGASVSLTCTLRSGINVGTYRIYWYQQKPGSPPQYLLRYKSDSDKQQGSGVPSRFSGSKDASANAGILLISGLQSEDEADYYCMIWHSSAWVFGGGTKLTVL
VH: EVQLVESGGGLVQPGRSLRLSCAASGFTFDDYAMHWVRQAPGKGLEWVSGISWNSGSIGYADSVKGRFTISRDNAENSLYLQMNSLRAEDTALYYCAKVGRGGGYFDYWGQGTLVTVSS

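Phage display of a naive human antibody library on the peptide gave the parent. In library AAYL51, one, two or three CDR residues were substituted; doubles and triples were drawn at random. The assay is AlphaSeq: two haploid yeast populations carry antibody and antigen on their surface. After mating in shaken culture at 30 °C for 16 h, diploids were selected and their barcode pairs sequenced. The ratio of observed to expected reads was calibrated, replicate by replicate, on BCL2-family standards whose Kd was known from biolayer interferometry. Each pool was mated in three replicate cultures.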

Substitutions are numbered in sequence along the VH above, starting at 1 (not Kabat).
Numbers give log10(Kd / nM), so 0 is 1 nM and 3 is 1 µM. Smaller is tighter.
Averages over replicates are reported, and they cover detected replicates only.
A pair that was not seen in that replicate is written "nd"; this usually means weak binding, but a binder can also be missed.

{"changes": "T28P G56R R101P", "log10 Kd (nM) by replicate": "2.52 2.84 3.04", "mean log10 Kd (nM)": "2.80", "control signals": "3 of 9 (4.33)"}
{"changes": "H35A G50F V99P", "log10 Kd (nM) by replicate": "nd nd nd", "mean log10 Kd (nM)": "nd", "control signals": "0 of 9"}
{"changes": "D30A V64H Y108F", "log10 Kd (nM) by replicate": "4.21 4.97 5.71", "mean log10 Kd (nM)": "4.96", "control signals": "6 of 9 (5.12)"}
{"changes": "D31F H35Y K65Y", "log10 Kd (nM) by replicate": "nd nd nd", "mean log10 Kd (nM)": "nd", "control signals": "0 of 9"}
{"changes": "Y32G F106T", "log10 Kd (nM) by replicate": "nd nd 4.03", "mean log10 Kd (nM)": "4.03", "control signals": "2 of 9 (3.60)"}
{"changes": "G26L M34A Y60R", "log10 Kd (nM) by replicate": "nd nd nd", "mean log10 Kd (nM)": "nd", "control signals": "0 of 9"}
{"changes": "G59C D62K G100I", "log10 Kd (nM) by replicate": "4.96 5.77 nd", "mean log10 Kd (nM)": "5.36", "control signals": "5 of 9 (5.61)"}
{"changes": "F29T G56I D62E", "log10 Kd (nM) by replicate": "3.94 3.33 3.60", "mean log10 Kd (nM)": "3.63", "control signals": "5 of 9 (4.26)"}
{"changes": "D31S G56F K65P", "log10 Kd (nM) by replicate": "4.19 nd nd", "mean log10 Kd (nM)": "4.19", "control signals": "0 of 9"}
{"changes": "D30I V99E G103L", "log10 Kd (nM) by replicate": "3.99 nd nd", "mean log10 Kd (nM)": "3.99", "control signals": "1 of 9 (4.33)"}
{"changes": "S63F G102S Y108W", "log10 Kd (nM) by replicate": "nd nd nd", "mean log10 Kd (nM)": "nd", "control signals": "0 of 9"}
{"changes": "G50S W53P G59R", "log10 Kd (nM) by replicate": "4.10 nd nd", "mean log10 Kd (nM)": "4.10", "control signals": "4 of 9 (4.80)"}
{"changes": "S55M V64L D107F", "log10 Kd (nM) by replicate": "nd nd nd", "mean log10 Kd (nM)": "nd", "control signals": "1 of 9 (3.11)"}
{"changes": "A61I K65F", "log10 Kd (nM) by replicate": "3.66 3.24 nd", "mean log10 Kd (nM)": "3.45", "control signals": "1 of 9 (4.00)"}
{"changes": "T28N G56W G104D", "log10 Kd (nM) by replicate": "1.32 1.30 1.01", "mean log10 Kd (nM)": "1.21", "control signals": "3 of 9 (4.03)"}
{"changes": "Y32N N54M G59R", "log10 Kd (nM) by replicate": "4.72 2.74 4.67", "mean log10 Kd (nM)": "4.04", "control signals": "1 of 9 (3.97)"}
{"changes": "S55V S63E D107C", "log10 Kd (nM) by replicate": "4.32 nd nd", "mean log10 Kd (nM)": "4.32", "control signals": "0 of 9"}
{"changes": "A33Y G104E Y105F", "log10 Kd (nM) by replicate": "4.24 nd nd", "mean log10 Kd (nM)": "4.24", "control signals": "4 of 9 (5.12)"}
{"changes": "M34C N54S G56H", "log10 Kd (nM) by replicate": "nd nd nd", "mean log10 Kd (nM)": "nd", "control signals": "0 of 9"}
{"changes": "F29K S63K V64R", "log10 Kd (nM) by replicate": "5.45 5.58 4.28", "mean log10 Kd (nM)": "5.10", "control signals": "3 of 9 (3.86)"}
{"changes": "I58H R101S G104M", "log10 Kd (nM) by replicate": "nd nd nd", "mean log10 Kd (nM)": "nd", "control signals": "1 of 9 (4.72)"}
{"changes": "D31Y G102R G103M", "log10 Kd (nM) by replicate": "2.85 3.13 3.15", "mean log10 Kd (nM)": "3.04", "control signals": "8 of 9 (4.73)"}
{"changes": "I51C S57C A61C", "log10 Kd (nM) by replicate": "nd nd nd", "mean log10 Kd (nM)": "nd", "control signals": "2 of 9 (4.52)"}
{"changes": "D30F K65P R101A", "log10 Kd (nM) by replicate": "4.65 5.70 5.10", "mean log10 Kd (nM)": "5.15", "control signals": "1 of 9 (4.84)"}
{"changes": "F27Y N54I A61N", "log10 Kd (nM) by replicate": "nd nd nd", "mean log10 Kd (nM)": "nd", "control signals": "1 of 9 (3.26)"}
{"changes": "W53S V99K G103K", "log10 Kd (nM) by replicate": "nd 5.81 nd", "mean log10 Kd (nM)": "5.81", "control signals": "2 of 9 (4.49)"}

Excerpt, the final 4 entries:

{"changes": "I51C S57C A61C", "log10 Kd (nM) by replicate": "nd nd nd", "mean log10 Kd (nM)": "nd", "control signals": "2 of 9 (4.52)"}
{"changes": "D30F K65P R101A", "log10 Kd (nM) by replicate": "4.65 5.70 5.10", "mean log10 Kd (nM)": "5.15", "control signals": "1 of 9 (4.84)"}
{"changes": "F27Y N54I A61N", "log10 Kd (nM) by replicate": "nd nd nd", "mean log10 Kd (nM)": "nd", "control signals": "1 of 9 (3.26)"}
{"changes": "W53S V99K G103K", "log10 Kd (nM) by replicate": "nd 5.81 nd", "mean log10 Kd (nM)": "5.81", "control signals": "2 of 9 (4.49)"}

As a blank, each scFv also met three strains without target: over library AAYL51, 21% of these pairings were detected, typically at 4.54 and seldom below 3.26. Also given: how often the same scFv was detected with the empty control strains, with their mean in brackets.
In this assay the parent's reference entry averaged 1.86; its copy inside this library read 0.88.